{"source": "patent US8729088B2", "about": "“Toll-like receptor modulators and treatment of diseases” (The Regents of the University of California, priority 2009, dated 2014)", "key": {"TLR7 [1]": {"test_system": "TLR7", "assay": "Cytokine induction in BMDM from wild type and TLR7 deficient mice", "assay_type": "cell-based, mouse", "settings": "BMDM from TLR7 deficient mice", "description": "(§1) In vitro measurements of cytokine induction were performed using the mouse leukemic monocyte macrophage cell line, RAW264.7. […] BMDM were prepared from C57BL/6 and TLR7 deficient mice as described in Wu, C. C et al., (2007) “Immunotherapeutic activity of a conjugate of a Toll-like receptor 7 ligand”, Proc Natl Acad Sci USA 104, 3990-5.\n(§2) In general, RAW264.7 cells or BMDM were incubated with various concentrations of conjugates for 18 hours at 37° C., 5% CO2 and culture supernatants were collected. The levels of cytokines (IL-6, IL-12 or TNF-α in the supernatants were determined by ELISA (BD Biosciences Pharmingen, La Jolla, Calif.) (Cho, H. J et al., “Immunostimulatory DNA-based vaccines induce cytotoxic lymphocyte activity by a T-helper cell-independent mechanism” [see comments], Nat Biotechnol 18, 509-14 (2000)), and the results presented in FIG. 2A-D. Data are mean±SEM of triplicates and are representative of three independent experiments. Minimum detection levels of these cytokines were 15 pg/mL."}, "TLR7 [2]": {"target": "T1, TLR7 (Mus musculus, UniProt P58681)", "T1 sequence (P58681 27-1050)": "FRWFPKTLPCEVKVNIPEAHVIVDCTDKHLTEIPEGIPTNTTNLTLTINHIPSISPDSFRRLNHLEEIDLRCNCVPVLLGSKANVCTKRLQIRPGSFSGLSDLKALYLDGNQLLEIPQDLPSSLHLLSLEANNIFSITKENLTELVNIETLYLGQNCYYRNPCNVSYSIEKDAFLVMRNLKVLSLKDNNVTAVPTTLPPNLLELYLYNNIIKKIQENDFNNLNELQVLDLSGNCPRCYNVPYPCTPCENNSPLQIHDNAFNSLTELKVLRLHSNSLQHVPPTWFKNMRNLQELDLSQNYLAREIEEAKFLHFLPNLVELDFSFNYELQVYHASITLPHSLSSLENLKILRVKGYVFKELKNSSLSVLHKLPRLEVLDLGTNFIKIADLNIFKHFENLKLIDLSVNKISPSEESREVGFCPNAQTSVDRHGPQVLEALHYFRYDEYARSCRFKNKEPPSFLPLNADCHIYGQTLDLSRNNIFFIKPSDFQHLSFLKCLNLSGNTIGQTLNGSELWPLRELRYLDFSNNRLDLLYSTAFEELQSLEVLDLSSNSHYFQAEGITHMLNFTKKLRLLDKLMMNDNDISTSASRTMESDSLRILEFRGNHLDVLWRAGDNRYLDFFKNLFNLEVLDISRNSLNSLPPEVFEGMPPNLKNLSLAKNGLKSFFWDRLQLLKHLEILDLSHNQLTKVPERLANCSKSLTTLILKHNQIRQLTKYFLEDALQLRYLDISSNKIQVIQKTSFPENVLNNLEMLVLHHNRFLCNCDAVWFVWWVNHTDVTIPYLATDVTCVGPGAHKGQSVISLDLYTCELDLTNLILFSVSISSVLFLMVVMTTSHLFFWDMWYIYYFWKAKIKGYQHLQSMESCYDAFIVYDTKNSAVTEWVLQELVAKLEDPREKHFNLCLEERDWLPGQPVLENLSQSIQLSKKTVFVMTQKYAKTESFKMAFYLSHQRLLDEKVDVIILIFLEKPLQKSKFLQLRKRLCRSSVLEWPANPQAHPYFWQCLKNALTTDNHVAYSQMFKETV", "parameters": "endogenous in cells; host or cells: RAW264.7 (ATCC); primary BMDM from C57BL/6 mice", "settings": "cited from earlier work"}, "[3]": {"test_system": "C57BL/6 mice immunized with ovalbumin (OVA)", "assay": "Adjuvanticity: subcutaneous immunization with OVA mixed with TLR7 conjugates", "assay_type": "in vivo, mouse", "description": "Anti-OVA antibodies of the IgG subclasses (and in some embodiments specifically IgG1 and IgG2) were measured by ELISA, as described in Cho, H. J et al., “Immunostimulatory DNA-based vaccines induce cytotoxic lymphocyte activity by a T-helper cell-independent mechanism” [see comments], Nat Biotechnol 18, 509-14 (2000), and the results presented in FIGS. 5A and 5B. Each ELISA plate contained a titration of a previously quantitated serum to generate a standard curve. The titer of this standard was calculated as the highest dilution of serum that gave an absorbance reading that was double the background. The various sera samples were tested at a 1:100 dilution. The results are expressed in units per mL, calculated based on the units/mL of the standard serum, and represent the mean±SEM of five animals in each group. * and T denote P<0.05 and P<0.01 by One-way ANOVA compared to the mice immunized with OVA mixed with vehicle, respectively.\nSpleenocytes were prepared from the harvested spleens. […] The levels of IFNγ in the culture supernatants were measured by ELISA (BD Bioscience PharMingen) as per the manufacturer's instructions (Kobayashi, H et al., Prepriming: a novel approach to DNA-based vaccination and immunomodulation”, Springer Semin Immunopathol 22:85-96 (2000), and the results illustrated in FIG. 5C. Average total spleen cell number in each group were calculated and compared to the PBS-immunized groups to monitor the spleen cell proliferation. Data are mean±SEM of five mice and are representative of three independent experiments.\nThe efficiency of adjuvanticity was assessed by measurement of the levels and isotypes of the antigen-specific IgG that the vaccine induces, in particular IgG1 and IgG2 (Mosmann, T. R., and Coffman, R. L., ‘TH1 and TH2 cells: different patterns of lymphokine secretion lead to different functional properties’, Annual Review Immunology 7:145-73 (1989)). The groups of C57BL/6 mice (n=5 animals per group) were subcutaneously immunized with OVA (ovalbumin) mixed with TLR7 conjugates. ISS-ODN was used as a potent Th1 adjuvant positive control. […]"}, "TLR7 [4]": {"target": "T1, TLR7", "assay": "Cytokine induction in BMDM from wild type and TLR7 deficient mice", "assay_type": "cell-based", "parameters": "endogenous in cells; host or cells: primary BMDM from C57BL/6 mice", "settings": "wild type BMDM", "description": "as §1, §2"}}, "note": "Entries after “also recorded” stand apart in the source; their conditions may differ."}
{"substance": "4a: TLR7 agonist (UC1V150) covalently coupled with mouse serum albumin (MSA), conjugation ratio 5:1 [Compound 4a]", "values": [{"measurement": "IL-12 and IL-6 induction", "setting": "TLR7 [1]", "result": "little or no IL-12 and IL-6"}, {"measurement": "potency in cytokine induction compared to unconjugated drug (SM)", "setting": "TLR7 [2]; in vitro and in vivo, Wu et al. 2007", "result": "≥ 10"}, {"measurement": "potency as a cytokine inducer compared to the unconjugated agonist", "setting": "TLR7 [2]; previously shown", "result": 100, "unit": "fold"}, {"measurement": "onset of induction of anti-OVA antibodies", "setting": "[3]; OVA mixed with conjugate, s.c., days 0 and 7", "result": 14, "unit": "days"}, {"measurement": "OVA-specific IFNγ secretion by spleen cells", "setting": "[3]; day 56 splenocytes restimulated with OVA", "result": "enhanced; also recorded: maintained relatively high levels"}, {"measurement": "anti-OVA IgG2a levels", "setting": "[3]; serum, ELISA, days 0-56", "result": "subsequently declined; also recorded: rapid elevation; also recorded: declined three weeks after the last immunization"}, {"measurement": "agonist activity (IL-12, IL-6)", "setting": "TLR7 [4]", "result": "active"}]}
